Reference: US10214536B2, “Amlexanox analogs” (The Regents of the University of Michigan, priority 2016, dated 2019)

By UniProt entry, the sequences of proteins in these tests, tags left out. Residues count along the entry.
UniProt Q9UHD2, 1-657: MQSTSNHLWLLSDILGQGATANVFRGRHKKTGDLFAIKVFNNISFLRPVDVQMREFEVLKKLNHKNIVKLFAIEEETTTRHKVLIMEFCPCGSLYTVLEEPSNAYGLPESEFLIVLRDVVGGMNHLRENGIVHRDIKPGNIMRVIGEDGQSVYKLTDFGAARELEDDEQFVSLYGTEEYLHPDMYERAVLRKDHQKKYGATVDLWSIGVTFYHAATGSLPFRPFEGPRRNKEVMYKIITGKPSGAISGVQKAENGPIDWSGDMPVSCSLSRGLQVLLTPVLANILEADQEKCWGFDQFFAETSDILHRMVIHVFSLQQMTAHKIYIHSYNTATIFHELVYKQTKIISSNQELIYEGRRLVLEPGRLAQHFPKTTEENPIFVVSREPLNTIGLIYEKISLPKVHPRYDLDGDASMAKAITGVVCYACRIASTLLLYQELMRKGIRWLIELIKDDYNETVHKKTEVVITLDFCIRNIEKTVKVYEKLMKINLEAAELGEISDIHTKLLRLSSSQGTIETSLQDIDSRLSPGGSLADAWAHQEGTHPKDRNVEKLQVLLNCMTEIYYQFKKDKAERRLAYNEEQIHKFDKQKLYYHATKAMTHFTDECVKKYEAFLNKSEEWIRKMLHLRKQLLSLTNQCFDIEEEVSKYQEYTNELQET

Target: TBK1 (residues 1-657) (Homo sapiens (Human), UniProt Q9UHD2)
Assay: TBK1 dose-response kinase assay
Assay type: biochemical
Details: eight inhibitor concentrations from 400 μM or 40 μM to 0 μM; hill slope constrained to −1

Q: For `Nc1nc2oc3ccc(C4=CCCCC4)cc3c(=O)c2cc1-c1nnn[nH]1` [Compound 69, 2-Amino-7-(cyclohex-1-en-1-yl)-3-(1H-tetrazol-5-yl)-5H-chromeno[2,3-b]132yridine-5-one], which IC50 is on record?
A: 0.32 µM
